Source: ChEMBL document CHEMBL1133103, “Design, synthesis, and structure-activity relationships of novel non-imidazole histamine H(3) receptor antagonists” (J Med Chem, 2000)

Amino acid sequences for entries named in this document (tags omitted). A change or cut given only in a name is not applied to a line headed by its entry.
UniProt Q9JI35: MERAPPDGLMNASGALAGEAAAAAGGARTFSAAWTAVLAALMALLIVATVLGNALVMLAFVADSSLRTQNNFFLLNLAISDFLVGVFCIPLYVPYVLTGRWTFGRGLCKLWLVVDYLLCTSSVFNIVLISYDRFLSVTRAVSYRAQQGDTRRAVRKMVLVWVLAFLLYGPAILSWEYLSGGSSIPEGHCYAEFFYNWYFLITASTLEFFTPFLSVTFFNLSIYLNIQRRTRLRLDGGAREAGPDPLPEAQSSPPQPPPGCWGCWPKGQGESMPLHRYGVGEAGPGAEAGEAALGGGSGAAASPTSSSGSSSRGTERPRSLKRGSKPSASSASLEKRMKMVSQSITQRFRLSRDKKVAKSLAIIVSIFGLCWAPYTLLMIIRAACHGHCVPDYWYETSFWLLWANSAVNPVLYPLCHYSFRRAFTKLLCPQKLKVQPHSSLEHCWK

Target: Histamine H3 receptor (Cavia porcellus, UniProt Q9JI35)
Test: Compound was tested in vitro against histamine H3 receptor mediated inhibition of cholinergic neurogenic contractions in isolated guinea pig ileum

O=[N+]([O-])c1ccc(OCCCN2CCC(Nc3nc4ccccc4s3)CC2)cc1
pA2: 7.67
